# Reference: US20230151052A1, “NEUROSTEROID COMPOUNDS AND METHODS FOR THEIR PREPARATION AND USE IN TREATING CENTRAL NERVOUS SYSTEM DISORDERS” (published 2023)
# Experiments:
# [1] = Stability in buffer solution
# 6-Hz limbic-seizures = assay: 6-Hz model of acute seizures; conditions: s.c.; stimulation 15 minutes after dosing
# pilocarpine-induced SE = assay: Pilocarpine status epilepticus model; conditions: s.c.
# [2] = tested on: hippocampus kindling seizures; assay: Hippocampus kindling model of epilepsy; conditions: s.c.
# [3] = Plasma pharmacokinetics after iv or im dose (plasma levels of 21-OH-GX); conditions: rat, 10 mg/kg; for Cmax values, order for the iv and im groups: 21-OH-GX in plasma
# [4] = tested on: DFP-induced neuronal injury and neurodegeneration; assay: Neuroprotectant efficacy in the DFP model; conditions: im 40 min after DFP
# GABA-A receptor = assay: Whole-cell GABA-gated currents in acutely dissociated dentate gyrus granule cells (patch-clamp); conditions: antagonist at 10 µM
# [5] = pH=7 phosphate buffer (synthesis text)
# [6] = pH=7 phosphate buffer (table footnote)
# [7] = after 24 h in pH=7 phosphate buffer
# [8] = pH=7 phosphate buffer, room temperature
# [9] = medium not stated (synthesis text)
# [10] = after 23 h in PBS (pH=7) at room temperature
# [11] = parent drugs table, BQL= below the quantification level
compound,measurement,setting,value
C[C@@]1(O)CC[C@@]2(C)C(CC[C@@H]3C2CC[C@]2(C)[C@@H](C(=O)COC(=O)C4CCN(CC(O)CO)CC4)CC[C@@H]32)C1.Cl (stereo partly shown),Solubility,Aqueous solubility; [5],0.48 mg/mL
same,Solubility,Aqueous solubility; [6],0.48 mg/mL
same,"Stability, remaining",[1]; [7],100%
same,"Stability (24 h), drug remaining in the buffer solution",[1]; [8],100%
C[C@@]1(O)CC[C@@]2(C)C(CC[C@@H]3C2CC[C@]2(C)[C@@H](c4cc(CO)on4)CC[C@@H]32)C1 (stereo partly shown),Solubility,Aqueous solubility; [9],< 0.001 mg/mL
same,Solubility,Aqueous solubility; parent drugs table,<0.001 mg/mL
C[C@@]1(O)CC[C@@]2(C)C(CCC3C2CC[C@@]2(C)C3CC[C@@H]2c2cc(COCP(=O)(O)O)on2)C1 (stereo partly shown),Solubility,Aqueous solubility; [9],4.3 mg/mL
same,"Stability, prodrug remaining",[1]; [10],98.3%
CC(C)[C@H](N)C(=O)OCc1cc([C@H]2CC[C@H]3[C@@H]4CCC5C[C@](C)(O)CC[C@]5(C)C4CC[C@]23C)no1.O=C(O)CC(O)(CC(=O)O)C(=O)O (stereo partly shown),"Stability, remaining",[1]; after 24 h in PBS (pH=7.4),100%
same,"Stability (24 h), drug remaining in the buffer solution",[1]; [8],100%
CC(=O)[C@H]1CC[C@H]2[C@@H]3CCC4C[C@](C)(O)CC[C@]4(C)C3CC[C@]12C (stereo partly shown),Solubility,Aqueous solubility; [11],<BQL*
same,"Anticonvulsant and protective ED50, 6-Hz model",6-Hz limbic-seizures,2 mg/kg
same,"Anticonvulsant and protective ED50, Pilocarpine model",pilocarpine-induced SE,6 mg/kg
same,"Anticonvulsant and protective ED50, Kindling model",[2],3.5 mg/kg
C[C@@]1(O)CC[C@@]2(C)C(CC[C@@H]3C2CC[C@]2(C)[C@@H](c4cc(COP(=O)([O-])[O-])on4)CC[C@@H]32)C1.[Na+].[Na+] (stereo partly shown),Solubility,Aqueous solubility; [9],4.3 mg/mL
same,Solubility,Aqueous solubility; [6],5 mg/mL
same,"Stability, prodrug remaining",[1]; [10],98.3%
same,"Stability (24 h), drug remaining in the buffer solution",[1]; [8],100%
C[C@@]1(O)CC[C@@]2(C)C(CC[C@@H]3C2CC[C@]2(C)[C@@H](C(=O)CO)CC[C@@H]32)C1 (stereo partly shown),Solubility,Aqueous solubility; [11],<BQL*
same,"Anticonvulsant and protective ED50, 6-Hz model",6-Hz limbic-seizures,2.6 mg/kg
same,"Anticonvulsant and protective ED50, Pilocarpine model",pilocarpine-induced SE,6 mg/kg
same,"Anticonvulsant and protective ED50, Kindling model",[2],3.8 mg/kg
same,"Cmax values, order for the iv and im groups",[3],21-OH-GX > 21-OH-GX valine > 21-OH-GX lysine >21-OH-GX phosphate
same,Mean bioavailability administered im,[3]; im,about 96%
C[C@@]1(O)CC[C@@]2(C)C(CC[C@@H]3C2CC[C@]2(C)[C@@H](C(=O)COC(=O)C(N)CCCCN)CC[C@@H]32)C1 (stereo partly shown),Solubility,Aqueous solubility; [9],9.7 mg/mL
same,"Stability, prodrug remaining",[1]; after 24 h in PBS (pH=7),75%
C[C@@]1(O)CC[C@@]2(C)C(CC[C@@H]3C2CC[C@]2(C)[C@@H](C(=O)COC(=O)CC(O)C(=O)O)CC[C@@H]32)C1 (stereo partly shown),Solubility,Aqueous solubility; PBS pH=7.4 (synthesis text),0.406 mg/mL
same,Solubility,Aqueous solubility; [6],0.41 mg/mL
same,"Stability, remaining",[1]; after 24 h in PBS (pH=7.4),100%
same,"Stability (24 h), drug remaining in the buffer solution",[1]; [8],100%
CC(C)OC(=O)OCOP(=O)(COCc1cc([C@H]2CCC3C4CCC5C[C@](C)(O)CC[C@]5(C)C4CC[C@@]32C)no1)OCOC(=O)OC(C)C (stereo partly shown),Solubility,Aqueous solubility; [6],0.0066 mg/mL
same,Solubility,Aqueous solubility; pH=7.4 buffer,0.0066 mg/mL
"(3-((3R,8R,10S,13S,14S,17S)-3-hydroxy-3,10,13-trimethylhexadecahydro-1H-cyclopenta[a]phenanthren-17-yl)isoxazol-5-yl)methyl L-lysinate bis-2-hydroxypropane-1,2,3-tricarboxylic acid",Solubility,Aqueous solubility; [9],5.2 mg/mL
same,Solubility,Aqueous solubility; [6],5.2 mg/mL
same,"Stability, prodrug remaining",[1]; after 24 h in PBS (pH=7),94.5%
same,"Stability (24 h), drug remaining in the buffer solution",[1]; [8],94.5%
C[C@@]1(O)CC[C@@]2(C)C(CC[C@@H]3C2CC[C@]2(C)[C@@H](C(=O)COP(=O)([O-])[O-])CC[C@@H]32)C1.[Na+].[Na+] (stereo partly shown),Solubility,Aqueous solubility; PBS pH=7.4 (synthesis text),> 10 mg/mL
same,Solubility,Aqueous solubility; [6],>10 mg/mL
same,"Anticonvulsant and protective ED50, 6-Hz model",6-Hz limbic-seizures,2.8 mg/kg
same,"Anticonvulsant and protective ED50, Pilocarpine model",pilocarpine-induced SE,6 mg/kg
same,"Anticonvulsant and protective ED50, Kindling model",[2],3.5 mg/kg
same,Stability,[1]; at 26 h in PBS (pH=7.4),No decomposition observed
same,"Stability (24 h), drug remaining in the buffer solution",[1]; [8],100%
same,"Cmax values, order for the iv and im groups",[3],21-OH-GX > 21-OH-GX valine > 21-OH-GX lysine >21-OH-GX phosphate
C[C@@]1(O)CC[C@@]2(C)C(CC[C@@H]3C2CC[C@]2(C)[C@@H](C(=O)COC(=O)NCCN4CCCCC4)CC[C@@H]32)C1 (stereo partly shown),Solubility,Aqueous solubility; PBS pH=7.4 (synthesis text),0.12 mg/mL
same,Solubility,Aqueous solubility; pH=7.4,118 µg/mL (pH=7.4)
same,Stability,[1]; pH=6,"Decomposition at pH=6 was visible, but not quantified"
C[C@@]1(O)CC[C@@]2(C)C(CC[C@@H]3C2CC[C@]2(C)[C@@H](C(=O)COC(=O)CCC(=O)[O-])CC[C@@H]32)C1.[Na+] (stereo partly shown),Solubility,Aqueous solubility; [9],0.96 mg/mL
same,Solubility,Aqueous solubility; [6],0.96 mg/mL
same,"Anticonvulsant and protective ED50, 6-Hz model",6-Hz limbic-seizures,2.1 mg/kg
same,"Anticonvulsant and protective ED50, Pilocarpine model",pilocarpine-induced SE,6 mg/kg
same,"Anticonvulsant and protective ED50, Kindling model",[2],3.5 mg/kg
same,"Stability, remaining",[1]; [7],98%
same,"Stability (24 h), drug remaining in the buffer solution",[1]; [8],98%
C[C@@]1(O)CC[C@@]2(C)C(CC[C@@H]3C2CC[C@]2(C)[C@@H](C(=O)COCP(=O)([O-])[O-])CC[C@@H]32)C1.[Na+].[Na+] (stereo partly shown),Solubility,Aqueous solubility; PBS pH=7.4 (synthesis text),7.3 mg/mL
same,Solubility,Aqueous solubility; [6],7.3 mg/mL
same,Stability,[1]; over 24 h in pH=7.4 PBS,no decomposition observed
same,"Stability (24 h), drug remaining in the buffer solution",[1]; [8],100%
CC(C)[C@H](N)C(=O)OCC(=O)[C@H]1CC[C@H]2[C@@H]3CCC4C[C@](C)(O)CC[C@]4(C)C3CC[C@]12C.Cl (stereo partly shown),Solubility,Aqueous solubility; [5],2 mg/mL
same,Solubility,Aqueous solubility; [6],2 mg/mL
same,"Anticonvulsant and protective ED50, 6-Hz model",6-Hz limbic-seizures,2.6 mg/kg
same,"Anticonvulsant and protective ED50, Pilocarpine model",pilocarpine-induced SE,6 mg/kg
same,"Neuroprotective profile compared with ganaxolone and midazolam, DFP model",[4],superior to the parent ganaxolone and the standard anticonvulsant midazolam
same,"Anticonvulsant and protective ED50, Kindling model",[2],3.3 mg/kg
same,"Stability, drug remaining in the buffer solution","[1]; pH=7 phosphate buffer, room temperature, 6 h",75% (6 h)
same,"Cmax values, order for the iv and im groups",[3],21-OH-GX > 21-OH-GX valine > 21-OH-GX lysine >21-OH-GX phosphate
COc1ccc(-c2ccc(=N)n(CCCC(=O)O)n2)cc1,Blockade of whole-cell GABA-gated current potentiation by GX,GABA-A receptor,completely blocked
